Source: US11905286B2, “Diazabicyclooctanones as inhibitors of serine beta-lactamases” (priority 2018, dated 2024)

System: NTBC189 (K. pneumoniae strain expressing TEM-OSBL(b), CTX-M-14, OXA-48(c))
Experiment: Meropenem potentiation, broth micro-dilution MIC, strain NTBC189
Settings: NTBC189, MIC of meropenem with 4 μg/mL of the labelled inhibitor, value

## NC(=O)[C@@H]1CC[C@@H]2CN1C(=O)N2OS(=O)(=O)O [Avibactam, avibactam, reference compound]
  MIC mero + 4 μg/mL inhibitor: 0.25 µg/mL
